Measurements taken from article PMC7611940, “A Conformation Selective Mode of Inhibiting SRC Improves Drug Efficacy and Tolerability” (Cancer Research, 2021).

Assays:
Assay in all cases: biochemical
Details in all cases: read-out: % remaining activity
[1] = biological target: SRPK1 (Homo sapiens, UniProt Q96SB4)
[2] = biological target: T1, p38-alpha (Homo sapiens, UniProt Q16539)
T1 construct: gene MAPK14

[3] = biological target: AKT1 (Homo sapiens, UniProt P31749)
[4] = biological target: FRK (Homo sapiens, UniProt P42685)
[5] = biological target: RAF1 (Homo sapiens, UniProt P04049)
[6] = biological target: T2, PKCtheta (Homo sapiens, UniProt Q04759)
T2 construct: gene PRKCQ

[7] = biological target: T3, MST4 (Homo sapiens, UniProt Q9P289)
T3 construct: gene STK26

[8] = biological target: T4, CK1g3 (Homo sapiens, UniProt Q9Y6M4)
T4 construct: gene CSNK1G3

[9] = biological target: EPHA7 (Homo sapiens, UniProt Q15375)
[10] = biological target: T5, IKKa (Homo sapiens, UniProt O15111)
T5 construct: gene CHUK

[11] = biological target: CDK5/p35 (Homo sapiens, UniProt Q00535)
[12] = biological target: AKT3 (Homo sapiens, UniProt Q9Y243)
[13] = biological target: CDC7/DBF4 (Homo sapiens, UniProt O00311)
[14] = biological target: PRKD1 (Homo sapiens, UniProt Q15139)
[15] = biological target: BRAF (Homo sapiens, UniProt P15056)
[16] = biological target: CAMK2a (Homo sapiens, UniProt Q9UQM7)
[17] = biological target: T6, MLK3 (Homo sapiens, UniProt Q16584)
T6 construct: gene MAP3K11

[18] = biological target: EPHA2 (Homo sapiens, UniProt P29317)
[19] = biological target: T7, ZAK (Homo sapiens, UniProt Q9NYL2)
T7 construct: gene MAP3K20

[20] = biological target: T8, ASK1 (Homo sapiens, UniProt Q99683)
T8 construct: gene MAP3K5

[21] = biological target: IGF1R (Homo sapiens, UniProt P08069)
[22] = biological target: MYO3b (Homo sapiens, UniProt Q8WXR4)
[23] = biological target: CAMK1g (Homo sapiens, UniProt Q96NX5)
[24] = biological target: T9, MLCK (Homo sapiens, UniProt Q15746)
T9 construct: gene MYLK

[25] = biological target: CLK3 (Homo sapiens, UniProt P49761)
[26] = biological target: CDK3/cyclin E (Homo sapiens, UniProt Q00526)
[27] = biological target: FGFR2 (Homo sapiens, UniProt P21802)
[28] = biological target: TNIK (Homo sapiens, UniProt Q9UKE5)
[29] = biological target: NEK6 (Homo sapiens, UniProt Q9HC98)
[30] = biological target: PAK1 (Homo sapiens, UniProt Q13153)
[31] = biological target: CDK6/cyclin D3 (Homo sapiens, UniProt Q00534)
[32] = biological target: NEK2 (Homo sapiens, UniProt P51955)
[33] = biological target: INSRR (Homo sapiens, UniProt P14616)
[34] = biological target: STK38 (Homo sapiens, UniProt Q15208)
[35] = biological target: T10, PKA (Homo sapiens, UniProt P17612)
T10 construct: gene PRKACA

[36] = biological target: T11, ALK3 (Homo sapiens, UniProt P36894)
T11 construct: gene BMPR1A

## COc1cc(-c2nn(CCN3CCC(N(C)C)CC3)c3ncnc(N)c23)ccc1NC(=O)OC(C)(C)C [eCF506]
[1]
  remaining activity at 1 µM: 93.3%
[2]
  remaining activity at 1 µM: 97.5%
[3]
  remaining activity at 1 µM: 106%
[4]
  remaining activity at 1 µM: 2.4%
[5]
  remaining activity at 1 µM: 19.6%
[6]
  remaining activity at 1 µM: 92.1%
[7]
  remaining activity at 1 µM: 98.7%
[8]
  remaining activity at 1 µM: 98.2%
[9]
  remaining activity at 1 µM: 98.1%
[10]
  remaining activity at 1 µM: 87.6%
[11]
  remaining activity at 1 µM: 102%
[12]
  remaining activity at 1 µM: 104%
[13]
  remaining activity at 1 µM: 107%
[14]
  remaining activity at 1 µM: 109%
[15]
  remaining activity at 1 µM: 35.5%
[16]
  remaining activity at 1 µM: 91.5%
[17]
  remaining activity at 1 µM: 100%
[18]
  remaining activity at 1 µM: 102%
[19]
  remaining activity at 1 µM: 83.4%
[20]
  remaining activity at 1 µM: 99.6%
[21]
  remaining activity at 1 µM: 101%
[22]
  remaining activity at 1 µM: 105%
[23]
  remaining activity at 1 µM: 91.5%
[24]
  remaining activity at 1 µM: 110%
[25]
  remaining activity at 1 µM: 95.2%
[26]
  remaining activity at 1 µM: 97.2%
[27]
  remaining activity at 1 µM: 110%
[28]
  remaining activity at 1 µM: 98.1%
[29]
  remaining activity at 1 µM: 99.7%
[30]
  remaining activity at 1 µM: 100%
[31]
  remaining activity at 1 µM: 92.6%
[32]
  remaining activity at 1 µM: 97.7%
[33]
  remaining activity at 1 µM: 101%
[34]
  remaining activity at 1 µM: 176%
[35]
  remaining activity at 1 µM: 105%
[36]
  remaining activity at 1 µM: 98.2%
